Results taken from article PMC9282716 (Cell reports, 2022).
pEC50: −log10 of the molar value.

By UniProt entry, the sequences of proteins in these tests, tags left out. Where a name states a change or a piece, a line headed by the entry shows the natural chain unless it says otherwise.
UniProt P43116: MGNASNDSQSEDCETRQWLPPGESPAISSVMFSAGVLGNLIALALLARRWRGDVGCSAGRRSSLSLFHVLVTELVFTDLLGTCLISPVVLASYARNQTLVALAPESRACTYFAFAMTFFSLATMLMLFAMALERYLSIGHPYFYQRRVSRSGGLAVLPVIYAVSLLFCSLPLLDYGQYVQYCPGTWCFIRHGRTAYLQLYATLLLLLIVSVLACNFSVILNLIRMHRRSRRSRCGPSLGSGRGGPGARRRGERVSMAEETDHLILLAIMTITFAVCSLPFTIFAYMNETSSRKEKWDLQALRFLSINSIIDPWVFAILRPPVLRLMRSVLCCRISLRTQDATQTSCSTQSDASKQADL

Tests used:
[1] = biological target: T1, EP2 receptor (Homo sapiens, UniProt P43116); test: Cell-based TR-FRET cAMP assay in BE
[2] = biological target: T1, EP2 receptor; test: cell-based

pEC50 [1]: 7.40
pEC50 ([2]; PGE2 EC50 for cAMP): 7.68
pEC50 ([2]; agonist EC50 for cAMP induction): 7.40
Structure (SMILES): CCCCC[C@H](O)/C=C/[C@H]1[C@H](O)CC(=O)[C@@H]1C/C=C\CCCC(=O)O [PGE2, Prostaglandin E2]
